Laboratory results reported in BindingDB's records for 22319196.

Sequences of proteins named here, by UniProt entry; tags and fusion partners are left off.
UniProt O75762, whole entry, looked up: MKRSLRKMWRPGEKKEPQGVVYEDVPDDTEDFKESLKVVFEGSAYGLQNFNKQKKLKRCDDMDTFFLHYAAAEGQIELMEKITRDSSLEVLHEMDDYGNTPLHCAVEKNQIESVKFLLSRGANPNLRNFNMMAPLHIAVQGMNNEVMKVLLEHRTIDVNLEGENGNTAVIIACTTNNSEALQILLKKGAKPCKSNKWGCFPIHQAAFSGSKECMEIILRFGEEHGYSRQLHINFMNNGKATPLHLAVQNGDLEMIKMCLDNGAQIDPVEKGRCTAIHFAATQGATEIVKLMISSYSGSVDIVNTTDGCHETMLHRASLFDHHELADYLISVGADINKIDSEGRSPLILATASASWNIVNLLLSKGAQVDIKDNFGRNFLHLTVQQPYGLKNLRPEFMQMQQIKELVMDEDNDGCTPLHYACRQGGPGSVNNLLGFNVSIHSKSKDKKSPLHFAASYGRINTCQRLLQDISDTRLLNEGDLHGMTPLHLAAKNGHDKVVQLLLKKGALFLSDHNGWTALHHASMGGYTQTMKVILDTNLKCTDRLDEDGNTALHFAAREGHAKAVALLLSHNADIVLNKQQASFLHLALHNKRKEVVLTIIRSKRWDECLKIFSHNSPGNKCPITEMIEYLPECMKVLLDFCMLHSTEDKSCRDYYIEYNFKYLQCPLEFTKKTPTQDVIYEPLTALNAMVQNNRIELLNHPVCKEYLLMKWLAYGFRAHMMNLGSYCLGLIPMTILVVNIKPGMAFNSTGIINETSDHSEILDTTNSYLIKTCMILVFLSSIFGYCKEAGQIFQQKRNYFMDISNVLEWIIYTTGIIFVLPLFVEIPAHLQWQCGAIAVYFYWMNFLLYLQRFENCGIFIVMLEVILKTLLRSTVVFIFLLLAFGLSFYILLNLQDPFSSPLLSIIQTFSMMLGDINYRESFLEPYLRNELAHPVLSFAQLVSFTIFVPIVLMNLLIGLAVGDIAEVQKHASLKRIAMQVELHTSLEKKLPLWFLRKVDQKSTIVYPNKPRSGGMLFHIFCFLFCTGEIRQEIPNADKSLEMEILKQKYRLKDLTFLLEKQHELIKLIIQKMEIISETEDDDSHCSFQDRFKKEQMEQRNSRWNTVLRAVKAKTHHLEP

Experiments:
[1] = molecular target: Transient receptor potential cation channel subfamily A member 1 (Homo sapiens, UniProt O75762); experiment: Agonist activity at full length human TRPA1 transfected in HEK293F cells assessed as increase in Ca2+ influx by FLIPR calcium assay
[2] = molecular target: Transient receptor potential cation channel subfamily A member 1 (UniProt A0A1D5QMT1); experiment: Agonist activity at rhesus monkey TRPA1 transfected in HEK293F cells assessed as increase in Ca2+ influx by FLIPR calcium assay

**Q.** What does the source list for O=[N+]([O-])c1cc([N+](=O)[O-])c(O)c([N+](=O)[O-])c1?
**A.** EC50 [1]: 107 µM; EC50 [2]: > 300 µM
